# Antibody variant affinities, Ab-95 light chain, assay 2

Binding partner: SARS-CoV-2 spike HR2 peptide, sequence PDVDLGDISGINAS.

Parent scFv Ab-95: VH joined to VL by three GGGGS repeats. Changes lie in the light chain CDRs alone.
VH: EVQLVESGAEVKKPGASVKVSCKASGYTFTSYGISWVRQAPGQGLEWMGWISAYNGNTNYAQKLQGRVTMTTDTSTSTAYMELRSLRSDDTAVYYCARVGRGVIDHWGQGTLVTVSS
VL: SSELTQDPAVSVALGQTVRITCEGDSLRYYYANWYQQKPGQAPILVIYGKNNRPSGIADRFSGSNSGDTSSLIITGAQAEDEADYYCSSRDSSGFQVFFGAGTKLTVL

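The library (AAYL52) carries one to three amino acid substitutions per variant, with no insertions or deletions. The assay is AlphaSeq: two haploid yeast populations carry antibody and antigen on their surface. Pairs that bind mate more often; barcode pairs of the diploids are counted by sequencing. The ratio of observed to expected reads was calibrated, replicate by replicate, on BCL2-family standards whose Kd was known from biolayer interferometry. The assay was run in three technical replicates.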

Sequences are complete VL domains. Affinities are written as log10 Kd with Kd in nM; a lower number is a better binder. The mean shown is taken over the replicates in which the pair was detected. A pair that was not seen in that replicate is written "ND"; this usually means weak binding, but a binder can also be missed.

VL,"replicates, log10 nM","mean, log10 nM",empty controls
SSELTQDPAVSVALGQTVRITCEGDSLRYYYANWYQQKPGQAPILVIYNKNNRPSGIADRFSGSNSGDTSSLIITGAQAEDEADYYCSSRDSFGLQVFFGAGTKLTVL,2.60 2.97 2.04,2.54,2 of 9 (4.25)
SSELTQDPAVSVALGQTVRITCEGDILRYYYANWYQQKPGQAPILVIYWKNNRPSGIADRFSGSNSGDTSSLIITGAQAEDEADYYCSSRDSSGFQVFFGAGTKLTVL,ND ND ND,ND,2 of 9 (4.11)
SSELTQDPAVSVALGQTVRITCEDDSLRYYYANWYQQKPGQAPILVIYGKSNRPSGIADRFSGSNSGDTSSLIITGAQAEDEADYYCSSSDSSGFQVFFGAGTKLTVL,3.45 4.82 4.66,4.31,4 of 9 (4.05)
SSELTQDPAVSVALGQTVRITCEGDSLRSYYANWYQQKPGQAPILVIYGKNNRPSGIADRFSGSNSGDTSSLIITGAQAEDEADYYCMSRDSSGSQVFFGAGTKLTVL,1.95 2.05 1.68,1.89,2 of 9 (3.80)
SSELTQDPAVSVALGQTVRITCHGDSLRYYYANWYQQKPGQAPILVIYGKNNRPSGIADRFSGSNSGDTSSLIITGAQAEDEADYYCSSRDSVVFQVFFGAGTKLTVL,ND 3.62 ND,3.62,6 of 9 (3.64)
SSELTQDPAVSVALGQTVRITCEGLDLRYYYANWYQQKPGQAPILVIYGKNNRPSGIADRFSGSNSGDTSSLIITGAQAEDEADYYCSSRDSSGHQVFFGAGTKLTVL,ND 3.47 ND,3.47,1 of 9 (3.67)
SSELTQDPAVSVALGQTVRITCEGDALRYYYANWYQQKPGQAPILVIYGKNNRPSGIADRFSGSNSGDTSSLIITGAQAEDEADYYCSSRDSSHFTVFFGAGTKLTVL,ND ND ND,ND,3 of 9 (4.27)
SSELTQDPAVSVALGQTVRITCEEDSLHYYYAQWYQQKPGQAPILVIYGKNNRPSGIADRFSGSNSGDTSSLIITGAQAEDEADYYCSSRDSSGFQVFFGAGTKLTVL,ND ND 3.65,3.65,2 of 9 (3.97)
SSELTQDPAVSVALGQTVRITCEGDSLRAYYANWYQQKPGQAPILVIYGKNNRPSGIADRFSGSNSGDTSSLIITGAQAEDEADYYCSSRDFSGFQHFFGAGTKLTVL,2.26 1.91 1.74,1.97,2 of 9 (3.42)
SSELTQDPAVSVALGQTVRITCEGDSLRYYYANWYQQKPGQAPILVIYGKNGRPSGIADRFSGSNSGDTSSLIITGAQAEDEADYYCSARDSSAFQVFFGAGTKLTVL,3.03 3.06 2.13,2.74,4 of 9 (4.06)
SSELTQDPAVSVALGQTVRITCEGDSLIPYYANWYQQKPGQAPILVIYGKNNRPSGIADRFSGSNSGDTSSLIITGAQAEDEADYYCSSRDSSGFQVFFGAGTKLTVL,2.42 2.73 1.93,2.36,2 of 9 (4.48)
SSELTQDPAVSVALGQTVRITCEGTSLNYYYANWYQQKPGQAPILVIYGKNNRPSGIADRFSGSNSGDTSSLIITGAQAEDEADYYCSSCDSSGFQVFFGAGTKLTVL,2.23 2.48 2.09,2.27,4 of 9 (4.02)
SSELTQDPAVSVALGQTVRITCEGDDLRSYYANWYQQKPGQAPILVIYGYNNRPSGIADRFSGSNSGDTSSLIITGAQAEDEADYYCSSRDSSGFQVFFGAGTKLTVL,3.45 2.88 4.44,3.59,3 of 9 (3.88)
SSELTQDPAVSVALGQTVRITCPGDSLRYYYANWYQQKPGQAPILVIYGKKNNPSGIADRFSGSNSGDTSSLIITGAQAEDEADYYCSSRDSSGFQVFFGAGTKLTVL,3.54 3.38 3.91,3.61,4 of 9 (4.10)
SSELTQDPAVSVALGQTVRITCEGDSLRYYYANWYQQKPGQAPILVIYGPNNMPSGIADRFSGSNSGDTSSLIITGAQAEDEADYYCSSRDSEGFQVFFGAGTKLTVL,ND 3.58 3.51,3.55,0 of 9
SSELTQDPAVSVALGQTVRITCEGCSARYYYANWYQQKPGQAPILVIYGKNNRPSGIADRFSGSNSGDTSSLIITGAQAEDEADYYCTSRDSSGFQVFFGAGTKLTVL,ND ND ND,ND,0 of 9
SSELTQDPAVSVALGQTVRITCEGHSLRYYYANWYQQKPGQAPILVIYGKRNRPGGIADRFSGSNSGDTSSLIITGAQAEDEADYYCSSRDSSGFQVFFGAGTKLTVL,ND 3.85 ND,3.85,1 of 9 (3.77)
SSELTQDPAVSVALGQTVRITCEGDQKRYYYASWYQQKPGQAPILVIYGKNNRPSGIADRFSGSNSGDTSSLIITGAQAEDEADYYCSSRDSSGFQVFFGAGTKLTVL,ND ND ND,ND,2 of 9 (3.50)
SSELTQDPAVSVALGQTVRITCEGDSLRYYYANWYQQKPGQAPILVIYGKNQRLSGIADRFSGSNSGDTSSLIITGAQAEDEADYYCSSRDFSGFQVFFGAGTKLTVL,3.02 2.18 2.76,2.66,2 of 9 (4.66)
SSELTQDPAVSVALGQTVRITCEGDSLRYYYANWYQQKPGQAPILVIYGKLNRPSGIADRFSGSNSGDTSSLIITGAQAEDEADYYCSSRQSSGFQVWFGAGTKLTVL,4.28 3.87 ND,4.07,1 of 9 (3.64)
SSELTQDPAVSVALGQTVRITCEGDSLRYYYANWYQQKPGQAPILVIYGKDNRPSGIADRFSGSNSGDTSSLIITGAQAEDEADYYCSSRDPSGFQVFFGAGTKLTVL,4.46 3.30 3.21,3.66,1 of 9 (4.86)
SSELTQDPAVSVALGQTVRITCEGDPLRYYYANWYQQKPGQAPILVIYGKNNRFSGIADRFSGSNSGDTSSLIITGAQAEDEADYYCSSRDSSGFFVFFGAGTKLTVL,2.92 2.50 2.31,2.58,7 of 9 (4.07)
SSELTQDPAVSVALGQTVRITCEGHSLRYYYANWYQQKPGQAPILVIYGKNNHPSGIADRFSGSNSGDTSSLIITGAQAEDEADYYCSSRDSSGTQVFFGAGTKLTVL,2.35 2.82 2.28,2.48,1 of 9 (3.34)
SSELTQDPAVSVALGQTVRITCEGDSLRYYDTNWYQQKPGQAPILVIYGKNNRPSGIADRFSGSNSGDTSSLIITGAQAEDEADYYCSSRDSSVFQVFFGAGTKLTVL,1.73 1.68 1.14,1.51,1 of 9 (3.56)
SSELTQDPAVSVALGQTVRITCEGDSLQYYYAYWYQQKPGQAPILVIYGRNNRPSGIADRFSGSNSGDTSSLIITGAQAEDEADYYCSSRDSSGFQVFFGAGTKLTVL,ND ND ND,ND,1 of 9 (4.78)

Top 3 of the variants detected in all replicates, tightest first:

{"VL": "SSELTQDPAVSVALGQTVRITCEGDSLRYYDTNWYQQKPGQAPILVIYGKNNRPSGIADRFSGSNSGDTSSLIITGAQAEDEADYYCSSRDSSVFQVFFGAGTKLTVL", "replicates, log10 nM": "1.73 1.68 1.14", "mean, log10 nM": "1.51", "empty controls": "1 of 9 (3.56)"}
{"VL": "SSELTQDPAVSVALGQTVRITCEGDSLRSYYANWYQQKPGQAPILVIYGKNNRPSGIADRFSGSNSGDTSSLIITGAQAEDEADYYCMSRDSSGSQVFFGAGTKLTVL", "replicates, log10 nM": "1.95 2.05 1.68", "mean, log10 nM": "1.89", "empty controls": "2 of 9 (3.80)"}
{"VL": "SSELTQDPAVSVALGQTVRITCEGDSLRAYYANWYQQKPGQAPILVIYGKNNRPSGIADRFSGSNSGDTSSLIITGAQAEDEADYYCSSRDFSGFQHFFGAGTKLTVL", "replicates, log10 nM": "2.26 1.91 1.74", "mean, log10 nM": "1.97", "empty controls": "2 of 9 (3.42)"}

Parent in this assay: reference entry 2.31, copy in this library 2.25. Nonspecific signal, from three strains lacking the peptide, appeared in 28% of pairings of library AAYL52, centred on 3.91 (5% of these signals below 2.90); values are not corrected for it. Also given: how often the same scFv was detected with the empty control strains, with their mean in brackets.

Reference: Engelhart et al. 2022, doi:10.1038/s41597-022-01779-4. File: FLAb, binding data.